Reference: PubChem BioAssay AID1347071 (National Center for Advancing Translational Sciences (NCATS), 2019)
This is a selection; strong and weak results do not stand in their true shares. The source made the active and inactive calls. Calls come from the whole dose curve; as a rule, active = well fitted activation curve with a large enough effect; inconclusive = small, poorly fitted or top-dose-only effect; inactive = no such curve, though single readings can be large or run the other way.

Assay: qHTS for compounds that reverse cellular toxicity of Amyloid beta (A-beta) peptide in yeast: Primary Screen; note: nearly all actives have a fitted effect of over 55% in size
Settings: yeast expressing A-beta42, growth rescue, OD600, 48 h, 0% DMSO, 100% iron-clioquinol control; at 46.1 µM (top of the series)
Text: The A-beta peptide is produced by the processing of the amyloid precursor protein (APP) by two proteases, beta and gamma secretases. […] A-beta42 is regarded as the most amyloidogenic form due to its hydrophobicity; however, precisely how A-beta42 induces neurotoxicity is unclear. To understand further this biology and its potential therapeutic implications for human neurodegenerative disease, a quantitative high-throughput screen for compounds that reverse the cellular toxicity of the A-beta peptide was developed. A yeast based screen was used because it recapitulates the salient feature of protein mis-folding disorder accurately. This cell-based phenotypic screen provides a significant, unbiased advantage by letting the compounds and models inform us which proteins or pathways are most relevant. The ideal chemical candidates would therefore have activity in both our primary yeast and secondary neuronal toxicity assays, as well as in mouse models. They will be valuable tools for dissecting diverse protein homeostasis pathologies and could potentially become the focus for future pre-clinical development. For this luminescence assay, inhibition of A-beta rescues the toxic effect in the yeast cell, resulting in increase of signals and the desired phenotype of "Activator". This screen is run against the Molecular Libraries Small Molecule Repository (MLSMR) and the NCGC Sytravon Library Collection.
NIH Chemical Genomics Center [NCGC]
NIH Molecular Libraries Probe Centers Network [MLPCN]
Assay Submitter (PI): Susan Lindquist, Whitehead Institute, Massachusetts Institute of Technology
[1] Vassar R,et al (1999). Beta-secretase cleavage of Alzheimer's amyloid precursor protein by the transmembrane aspartic protease BACE. Science. 286: 735-741.
[2] Yan R, et al (1999). Membrane-anchored aspartyl protease with Alzheimer's disease beta-secretase activity. Nature. 402: 533-536.
Two and a half microliter / well of yeast growth medium were dispensed in a 1536 assay plate. Compounds were pinned using the Kalypsys robotic system followed by addition of 2.5 uL / well yeast solution. The assay plates were incubated at 30 C. After 48 hr, the absorbance signal at 600 nm was obtained using the PerkinElmer ViewLux plate reader to assess yeast growth. The data was normalized to the positive control of an equimolar mixture of ferric chloride (FeCl3) and clioquinol and to the negative control DMSO.

Row | SMILES | growth rescue
1 | CCOC(=O)C(CC)C1=NC(C)(C)Cc2ccccc21.O=[N+]([O-])c1cc([N+](=O)[O-])c(O)c([N+](=O)[O-])c1 (stereo not given) | inactive: 5.98%
2 | CC(C)(C)OC(=O)N1CCC(N(C(=O)c2ccccc2)c2ccc(Cl)cc2)CC1 | inactive: -2.64%
3 | O=C(NCC1(N2CCOCC2)CCCCC1)c1ccc([N+](=O)[O-])cc1 | inactive: -8.15%
4 | O=C(NCC1(N2CCOCC2)CCCCC1)c1ccccc1[N+](=O)[O-] | inactive: -21.3%
5 | N#Cc1ccc(C(=O)NCC2(N3CCCCC3)CCCCC2)cc1 | inactive: -14.9%
6 | CC(C)(C)n1nnnc1C(c1cccc2ccccc12)N1CCC(n2c(=O)[nH]c3ccccc32)CC1 (stereo not given) | inactive: 5.37%
7 | O=C(NCC1(N2CCOCC2)CCCCC1)c1ccccc1 | inactive: -22.1%
8 | Cc1cc(N(CCCl)CCCl)ccc1C=O | inactive: -17%
9 | CCCN1CCC(Nc2cc(OC)cc(OC)c2)CC1 | inactive: 9.74%
10 | O=c1[nH]c2ccccc2n1C1CCN(C(c2ccccc2)c2nnnn2C2CCCC2)CC1 (stereo not given) | inactive: -7.95%
11 | c1ccc(CN2CCC(Nc3ccccc3)CC2)cc1 | inactive: 12.8%
12 | CN(C)C1(CNC(=O)c2cccc(C#N)c2)CCCCC1 | inactive: 0.125%
13 | O=c1[nH]c2ccccc2n1C1CCN(C(c2ccnc3ccccc23)c2nnnn2C2CCCC2)CC1 (stereo not given) | inactive: 18%
14 | COc1ccc(C(=O)NCC2(N3CCOCC3)CCCCC2)cc1OC | inactive: -8.77%
15 | O=c1[nH]c2ccccc2n1C1CCN(C(c2cccs2)c2nnnn2C2CCCCC2)CC1 (stereo not given) | inactive: 13.5%
16 | O=C(NCC1(N2CCOCC2)CCCCC1)c1cc(Br)ccc1Cl | inactive: 0.671%
17 | COc1cc(C(=O)NCC2(N3CCOCC3)CCCCC2)cc(OC)c1C | inactive: -10.2%
18 | CCCCn1nnnc1C(c1ccccc1)N1CCC(n2c(=O)[nH]c3ccccc32)CC1 (stereo not given) | inactive: -4.56%
19 | CCCCn1nnnc1C(c1cccc(OC)c1OC)N1CCC(n2c(=O)[nH]c3ccccc32)CC1 (stereo not given) | inactive: -15.1%
20 | O=c1[nH]c2ccccc2n1C1CCN(C(c2cccs2)c2nnnn2C2CCCC2)CC1 (stereo not given) | inactive: 8.75%
21 | O=C(O)c1cccc(Nc2c([N+](=O)[O-])cc([N+](=O)[O-])cc2[N+](=O)[O-])c1 | inactive: 10.5%
22 | CCc1cc(C(=O)NCC2(N3CCCCC3)CCCCC2)sc1C | inactive: 7.98%
23 | O=C(OC1CN2CCC1CC2)C1c2ccccc2C=Cc2ccccc21 (stereo not given) | inactive: 0%
24 | CCOC(=O)N1CCC(Nc2ccc(C)cc2)CC1 | inactive: 13.5%
25 | COc1cccc(C(c2nnnn2C(C)(C)C)N2CCC(n3c(=O)[nH]c4ccccc43)CC2)c1OC (stereo not given) | inactive: 0.0267%
